# Laboratory results: PubChem BioAssay AID485360 (National Center for Advancing Translational Sciences (NCATS), 2010)
# Chains of the proteins cited; added tags and fusions are not shown. Lines headed by an entry give the natural chain unless they say otherwise; changes in a name come on top.
# UniProt Q9Y468: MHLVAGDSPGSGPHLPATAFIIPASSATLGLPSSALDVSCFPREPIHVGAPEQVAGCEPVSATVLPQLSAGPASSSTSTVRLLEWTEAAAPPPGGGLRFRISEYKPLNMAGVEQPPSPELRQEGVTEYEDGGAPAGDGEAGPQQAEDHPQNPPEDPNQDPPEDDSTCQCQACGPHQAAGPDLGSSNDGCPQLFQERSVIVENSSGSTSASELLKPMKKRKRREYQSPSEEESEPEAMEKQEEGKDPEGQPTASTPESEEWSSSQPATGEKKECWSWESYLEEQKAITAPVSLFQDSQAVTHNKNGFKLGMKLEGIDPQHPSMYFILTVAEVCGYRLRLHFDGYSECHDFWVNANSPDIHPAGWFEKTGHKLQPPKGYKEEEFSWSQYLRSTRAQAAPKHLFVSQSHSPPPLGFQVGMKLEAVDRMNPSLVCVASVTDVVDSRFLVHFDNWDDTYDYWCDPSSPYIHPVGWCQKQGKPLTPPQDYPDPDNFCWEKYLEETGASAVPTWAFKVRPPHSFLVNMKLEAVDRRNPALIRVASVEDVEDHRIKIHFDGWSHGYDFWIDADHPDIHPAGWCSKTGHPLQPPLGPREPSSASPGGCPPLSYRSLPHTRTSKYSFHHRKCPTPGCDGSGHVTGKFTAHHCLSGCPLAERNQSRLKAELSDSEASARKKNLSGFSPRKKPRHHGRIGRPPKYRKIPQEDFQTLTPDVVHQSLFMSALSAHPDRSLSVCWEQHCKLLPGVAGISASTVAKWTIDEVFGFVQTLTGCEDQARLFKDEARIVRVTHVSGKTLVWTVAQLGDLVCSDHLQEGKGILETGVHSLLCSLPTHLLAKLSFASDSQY
# Only a part is listed here, and it is no random draw. Inconclusive results are not listed. Where a call stands in place of a potency, no number is given. Active and inactive are the calls of the source. The call rests on the fitted dose curve; in most records, active means well fitted inhibition curve with a large enough effect; inconclusive means small, poorly fitted or top-dose-only effect; inactive means no such curve, though single readings can be large or run the other way.
# Molecular target: Lethal(3)malignant brain tumor-like protein 1 (Homo sapiens) (UniProt Q9Y468)
# Experiment: qHTS Assay for the Inhibitors of L3MBTL1; further: nearly all actives have a fitted effect of over 60% in size
# Settings: AlphaScreen L3MBTL1–H3K9me1 peptide binding; series mostly up to 57.1 µM
Compound,Potency,"activity, negative = inhibition"
CCOP1(=S)c2c(C)nn(CCC#N)c2N=C(c2ccccc2F)N1C (stereo not given),inactive,–
O=P(Nc1nccs1)(c1ccccc1)c1nc2ccccc2s1 (stereo not given),inactive,–
CS(=O)(=O)c1cc([N+](=O)[O-])c2no[n+]([O-])c2c1,inactive,–
O=C(O)COc1ccc([As](=O)(O)O)cc1[N+](=O)[O-],inactive,–
Nc1ccccc1[As](=O)(O)c1ccccc1,inactive,–
N#CCCN(C(=O)COC(=O)C(O)(c1ccccc1)c1ccccc1)c1ccc(F)cc1,inactive,–
CCOP1(=S)c2c(C)nn(CCC#N)c2N=C(c2ccc(F)cc2)N1C (stereo not given),inactive,–
O=C(OC1CN2CCC1CC2)c1ccc(Cl)cc1 (stereo not given),inactive,–
O=[As](O)(O)c1cccnc1,inactive,–
O=[As](O)(c1cccc(O)c1)c1cccc(O)c1,inactive,–
Nc1cccc2c([As](=O)(O)O)cccc12,inactive,–
COc1cc(C2NCCC3(OCCO3)C2(C)C)cc(OC)c1OC (stereo not given),inactive,–
CCOP(=O)(Nc1cccc2ccccc12)OCC,inactive,–
CCC1=CC2Cc3nc4ccc(Cl)cc4c(N)c3C(C1)C2 (stereo not given),–,inactive: 0.552% [at 2.29 µM]
Clc1n[nH]nc1-c1nn[nH][15n]1,inactive,–
CC(C)(C)C(=O)NC(Sc1ncccn1)C(Cl)(Cl)Cl (stereo not given),inactive,–
COc1ccccc1CNC(=O)COC(=O)C(O)(c1ccccc1)c1ccccc1,inactive,–
CC(C)/C=N\N=C(\N)N[N+](=O)[O-],inactive,–
O=[As](O)(c1ccccc1Br)c1ccccc1Br,inactive,–
Cc1nn(-c2ccccc2)c2c1P(=O)(N1CCOCC1)N(C)C(c1ccccc1)=N2 (stereo not given),inactive,–
CC1CCC(C(C)C)C(OP(=O)(Nc2ccccn2)c2ccccc2)C1 (stereo not given),inactive,–
O=C(/C=C/c1ccccc1)OC1CN2CCC1CC2 (stereo not given),inactive,–
Nc1cccc([As](=O)(O)c2ccccc2)c1,inactive,–
Cc1ccc(OCC(=O)OC2CN3CCC2CC3)cc1 (stereo not given),inactive,–
NS(=O)(=O)c1cccc(NC(=O)COC(=O)C(O)(c2ccccc2)c2ccccc2)c1,inactive,–
